Legend:
[1] = molecular target: Acetylcholinesterase (Homo sapiens, UniProt P22303); experiment: Inhibition of human recombinant AChE using acetylthiocholine as substrate after 1 hr by Ellman method
[2] = molecular target: Cholinesterase (Homo sapiens, UniProt P06276); experiment: Inhibition of human recombinant BChE using butyrylthiocholine as substrate after 20 mins by Ellman method

Chains of the proteins cited; added tags and fusions are not shown. Residues count along the entry.
UniProt P22303, 32-614 limits assumed: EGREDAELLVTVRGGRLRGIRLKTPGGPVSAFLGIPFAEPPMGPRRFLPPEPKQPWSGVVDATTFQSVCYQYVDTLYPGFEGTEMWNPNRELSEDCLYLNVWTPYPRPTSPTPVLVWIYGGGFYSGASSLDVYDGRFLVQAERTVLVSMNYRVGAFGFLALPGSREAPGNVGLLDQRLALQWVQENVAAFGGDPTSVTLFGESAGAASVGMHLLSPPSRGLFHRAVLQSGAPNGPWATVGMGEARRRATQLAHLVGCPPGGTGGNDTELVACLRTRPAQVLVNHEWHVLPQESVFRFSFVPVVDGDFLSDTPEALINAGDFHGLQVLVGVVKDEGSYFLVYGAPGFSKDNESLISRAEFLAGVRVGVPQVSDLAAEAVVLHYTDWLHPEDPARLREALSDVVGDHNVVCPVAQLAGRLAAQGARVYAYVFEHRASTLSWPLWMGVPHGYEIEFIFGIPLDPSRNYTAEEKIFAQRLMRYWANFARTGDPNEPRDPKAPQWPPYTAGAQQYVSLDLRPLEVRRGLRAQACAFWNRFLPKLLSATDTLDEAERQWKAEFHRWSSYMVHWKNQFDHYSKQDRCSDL
UniProt P06276, 29-602 limits assumed: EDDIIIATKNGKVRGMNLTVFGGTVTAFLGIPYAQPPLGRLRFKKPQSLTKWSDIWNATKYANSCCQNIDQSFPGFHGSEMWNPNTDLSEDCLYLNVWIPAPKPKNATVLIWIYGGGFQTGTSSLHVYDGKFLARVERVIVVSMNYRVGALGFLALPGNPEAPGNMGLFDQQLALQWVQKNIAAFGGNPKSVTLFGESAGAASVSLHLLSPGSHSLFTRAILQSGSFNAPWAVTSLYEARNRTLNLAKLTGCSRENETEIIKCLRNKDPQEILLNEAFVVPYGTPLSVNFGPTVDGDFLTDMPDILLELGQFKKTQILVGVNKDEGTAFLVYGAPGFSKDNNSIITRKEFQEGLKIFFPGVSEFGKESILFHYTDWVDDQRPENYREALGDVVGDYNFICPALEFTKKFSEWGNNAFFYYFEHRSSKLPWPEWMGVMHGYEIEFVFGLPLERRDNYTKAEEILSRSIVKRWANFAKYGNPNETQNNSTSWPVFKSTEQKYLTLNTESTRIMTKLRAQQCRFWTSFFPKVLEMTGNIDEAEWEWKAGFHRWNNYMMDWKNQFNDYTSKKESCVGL

SMILES: CC(C)CC/N=C(/C=N/O)N(C)C
- IC50 [1]: 17 µM
- IC50 [2]: 66 µM

SMILES: CCCCN1CC(C)(C)CN=C1/C=N/O
- IC50 [1]: 93 µM

SMILES: CCCCCN1CCCN=C1/C=N/O
- IC50 [1]: 21 µM

SMILES: O/N=C/C1=NCCN1Cc1cc(C(F)(F)F)cc(C(F)(F)F)c1
- IC50 [1]: 85 µM

SMILES: O/N=C/C1=NCCN1Cc1ccccc1
- IC50 [1]: 44 µM
- IC50 [2]: 10 µM

SMILES: O/N=C/C1=NCCCN1Cc1cc(C(F)(F)F)cc(C(F)(F)F)c1
- IC50 [1]: 45 µM

SMILES: CCCCCN1CC(C)(C)CN=C1/C=N/O
- IC50 [1]: 89 µM
- IC50 [2]: 68 µM

SMILES: O/N=C/C1=NCCN1Cc1ccc(Cl)cc1Cl
- IC50 [1]: 24 µM
- IC50 [2]: 3.9 µM

SMILES: O/N=C/C1=NCCCN1Cc1ccc(Cl)cc1Cl
- IC50 [1]: 9 µM
- IC50 [2]: 6.3 µM

SMILES: CCCCC/N=C(/C=N/O)N(C)C
- IC50 [1]: 13 µM

SMILES: O/N=C/C1=NCCCN1Cc1ccccc1
- IC50 [1]: 28 µM
- IC50 [2]: 11 µM

Source: ChEMBL document CHEMBL1949498, “Nonquaternary reactivators for organophosphate-inhibited cholinesterases” (2012)
